# Experimental data taken from PubChem BioAssay AID2780 (Johns Hopkins Ion Channel Center, 2010).
# This is a selection; strong and weak results do not stand in their true shares. Some results for these compounds are left out of this collection, so the calls shown say nothing about other tests. Activity calls are given as the source filed them.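 The calls were made as follows: active = membrane potential signal shifting up or down by more than 3 SD of buffer-only wells, on both duplicate plates; inactive = the rest.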
# Assay: membrane potential modulation in parental HEK293, confirmation, counter-screen for TRPC6 inhibitor project, cell-based (AID 2780);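 also: plate controls were buffer EC0 wells for no effect and acetylcholine ECmax wells for full effect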
# Settings: parental HEK293 membrane potential dye fluorescence; at 10 µM
smiles,measurement,value
O=C(OC1CN2CCC1CC2)C(CO)(c1ccccc1)c1ccccc1 (stereo unspecified),membrane potential signal change,active: 1.14%
